System: SIX1::GFP cells
Assay: PIP-E6 pituitary induction and hormone release
Format: cell-based, human
Source text: Induction of anterior pituitary gland cells: Pituitary placode cells were induced by culturing SIX1::GFP cells according to the PIP-E6 protocol, wherein pituitary factors SHH, FGF8, FGF10 and/or hypothalamus CM were supplemented in the culture media from days 6-15. […] The pituitary markers were expressed 10 to 100 fold greater than in placodes induced using the PIP-E6 protocol alone without supplementation. After differentiation to day 30 using the modified PIP-E6 protocol, pituitary placode cells differentiated into hormone expressing cells corresponding to derivatives of all three pituitary precursor lineages. (FIG. 64 and FIG. 65). […] (FIG. 65).
The hormone expressing cells were responsive to external stimuli. […] (FIG. 66). The pituitary cells induced according to the modified PIP-E6 protocol were cultured with BMP2 and/or FGF8 to determine whether such agents could manipulate the yield of pituitary cells expressing the subtype specific markers Tbx19, Pit1, GATA2, POMC1, GH1, FDHM, and LHB. […] (FIG. 67).
Induction of anterior pituitary gland cells: SIX1::GFP hPSCs were cultured according to a modified PIP-E6 protocol, wherein pituitary factors such as FGF8, FGF10 or SHH, etc., were included in the culture media from days 6-14. […]

B1: BMP2: pituitary patterning factor (protein, UniProt P12643 283-396, looked up)
Bone morphogenetic protein 2: QAKHKQRKRLKSSCKRHPLYVDFSDVGWNDWIVAPPGYHAFYCHGECPFPLADHLNSTNHAIVQTLVNSVNSKIPKACCVPTELSAISMLYLDENEKVVLKNYQDMVVEGCGCR
  yield of pituitary subtype specific markers: increase the yield
